# AlphaSeq binding of Ab-14 light chain variants to a spike HR2 peptide

From the AlphaSeq antibody data of Engelhart et al. 2022 (doi:10.1038/s41597-022-01779-4), copy in the FLAb collection.

The target is the same throughout: PDVDLGDISGINAS, from the HR2 region of SARS-CoV-2 spike.

Parent: Ab-14, a human scFv built as VH, a (GGGGS)3 linker, VL. Only the CDRs of the light chain vary.
VH: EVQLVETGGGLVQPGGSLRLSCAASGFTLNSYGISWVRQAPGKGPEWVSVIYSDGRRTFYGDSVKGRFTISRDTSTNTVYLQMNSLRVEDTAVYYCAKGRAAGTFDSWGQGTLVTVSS
VL: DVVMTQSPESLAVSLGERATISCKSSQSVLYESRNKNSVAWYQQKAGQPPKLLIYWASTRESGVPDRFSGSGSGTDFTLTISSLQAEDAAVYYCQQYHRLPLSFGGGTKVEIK

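Phage display of a naive human antibody library on the peptide gave the parent. The library (AAYL50) carries one to three amino acid substitutions per variant, with no insertions or deletions. The assay is AlphaSeq: two haploid yeast populations carry antibody and antigen on their surface. Binding brings cells together so that they mate, and sequencing counts the barcode pairs among the diploids. A regression on co-assayed BCL2-family reference pairs converts the normalised counts of each replicate to an apparent Kd. Each pool was mated in three replicate cultures.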

Changes read parent residue, position, new residue, counted from the first residue of the VL shown.
Affinities are written as log10 Kd with Kd in nM; a lower number is a better binder.
Replicates are averaged; those with no signal do not enter the mean.
"nd" means that the variant was in the library but no mating with the target was seen in that replicate; the authors take this as a sign of poor binding, and no number exists.

changes	replicates, log10 nM	mean log10 Kd (nM)	empty controls
K24E/L30P/T59Y	1.87 1.89 1.86	1.87	0 of 9
A57V/S58V/R60V	4.44 4.97 nd	4.71	3 of 9 (4.56)
K24C/N35W/V39F	nd nd nd	nd	1 of 9 (2.39)
S26C/Q27D/K36G	2.14 1.99 2.00	2.04	0 of 9
V39G/A40M/W56E	3.74 5.03 5.02	4.60	5 of 9 (3.70)
W56N/S62R/L100F	1.39 1.35 1.58	1.44	0 of 9
Q27D/S38D/R60F	nd nd nd	nd	0 of 9
S26R/E32V/S38N	4.55 3.03 nd	3.79	2 of 9 (4.55)
L30A/S33F/Q96G	5.17 3.92 nd	4.54	2 of 9 (4.12)
E61I	0.98 1.53 1.23	1.25	1 of 9 (3.13)
V39G/A40M/T59H	nd nd nd	nd	0 of 9
R60L/P101T/L102E	nd nd nd	nd	1 of 9 (5.27)
S28Y/A40G/S62T	4.96 nd nd	4.96	4 of 9 (4.94)
L30N/T59Q/Q95W	nd 3.64 nd	3.64	1 of 9 (3.57)
Y31H/Q95T	3.37 3.40 3.01	3.26	7 of 9 (4.61)
V39D/S62Y/Q96K	5.26 nd nd	5.26	1 of 9 (3.96)
N35R/R60F/Y97E	nd nd nd	nd	0 of 9
Y31N/E61H/Y97T	nd nd nd	nd	1 of 9 (2.99)
S25N/K36G/H98Y	2.31 2.06 2.32	2.23	3 of 9 (5.41)
V39F/S58H/H98P	nd nd nd	nd	0 of 9
L30F/Y31N/W56M	0.53 0.72 0.68	0.64	4 of 9 (4.60)
S25Y/L30P/N37C	1.15 1.34 1.22	1.24	1 of 9 (4.21)
V39T/E61S/P101Q	nd nd nd	nd	3 of 9 (4.41)
P101G	nd 2.31 2.47	2.39	1 of 9 (2.16)
Q27H/S62K/S103L	2.49 2.35 2.47	2.44	4 of 9 (4.03)
K36F/P101C	0.98 1.10 1.13	1.07	0 of 9
K24A/W56G/L100I	0.35 0.54 0.39	0.43	0 of 9
A57T/R60Y/S62R	nd nd nd	nd	1 of 9 (5.15)
E32W/Q95G/Q96L	nd nd nd	nd	0 of 9
V29G/E32Y/Q96C	2.00 nd 1.99	2.00	2 of 9 (3.21)
Y31K/R60P/R99V	nd 4.14 3.27	3.71	1 of 9 (3.04)
Q27G/S33D/L100P	0.30 0.51 0.46	0.43	3 of 9 (4.45)
K24T/S33I/W56F	nd nd nd	nd	1 of 9 (3.47)
S26P/Q96H/L100W	1.12 1.46 1.39	1.32	0 of 9
R34P/S62Y/Q96L	2.30 2.25 2.47	2.34	3 of 9 (4.46)

Top 5 of the variants detected in all replicates, tightest first:

changes,"replicates, log10 nM",mean log10 Kd (nM),empty controls
Q27G/S33D/L100P,0.30 0.51 0.46,0.43,3 of 9 (4.45)
K24A/W56G/L100I,0.35 0.54 0.39,0.43,0 of 9
L30F/Y31N/W56M,0.53 0.72 0.68,0.64,4 of 9 (4.60)
K36F/P101C,0.98 1.10 1.13,1.07,0 of 9
S25Y/L30P/N37C,1.15 1.34 1.22,1.24,1 of 9 (4.21)

For reference, the parent read 0.65 as the reference entry and 1.68 as a member of this library.
Nonspecific signal, from three strains lacking the peptide, appeared in 18% of pairings of library AAYL50, centred on 4.19 (5% of these signals below 2.99); values are not corrected for it. For each scFv, signals with the empty controls are counted beside the result, with their mean in brackets.